PubChem BioAssay AID1457 (National Center for Advancing Translational Sciences (NCATS), 2008)
Only a part is listed here, and it is no random draw. Some tests of the compounds listed are not included; inactive here does not mean inactive elsewhere. Active and inactive are the calls of the source. The call rests on the fitted dose curve; in most records, active means well fitted inhibition curve with a large enough effect; inconclusive means small, poorly fitted or top-dose-only effect; inactive means no such curve, though single readings can be large or run the other way.

Test: qHTS Assay for Identifying the Cell-Membrane Permeable IMPase Inhibitors: Potentiation with Lithium;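 further: IP1 builds up when IMPase is blocked and the TR-FRET signal falls; plate controls were basal vehicle for no effect and high inhibitor control for full effect; nearly all actives have a fitted effect of over 50% in size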
Details: CHO-M1 cells, IP1 TR-FRET (IP-One), carbachol + lithium; at 59.4 µM (top of the series) unless noted
With `CN(C)c1cccc(C(=O)NCC2(N(C)C)CCCCC2)c1` the activity, negative = IMPase inhibition was inactive: -5.94% [at 38.3 µM]. In the case of `CN1CC[C@H](OC(=O)[C@](O)(c2ccccc2)C2CCCC2)C1`, the activity, negative = IMPase inhibition is reported as inactive: 23.6%. With `O=C(OC1CN2CCC1CC2)C(CO)(c1ccccc1)c1ccccc1` (configuration not stated) the activity, negative = IMPase inhibition was inactive: 26.3% [at 38.3 µM]. In the case of `CN1CCC[C@H](OC(=O)[C@](O)(c2ccccc2)C2CCCC2)C1`, the activity, negative = IMPase inhibition is reported as inactive: 26.1%. For `C=C(C)C#C[C@@](O)(C(=O)OC1CCN(C)CC1)c1ccccc1`, the activity, negative = IMPase inhibition was inactive: 18.6%. In the case of `COc1cccc(C(=O)NCC2(N3CCCCC3)CCCCC2)c1`, the activity, negative = IMPase inhibition is reported as inactive: 11.3%. For `C=CCN1CCN(CCOC(=O)C(O)(c2ccccc2)c2ccccc2)CC1`, the activity, negative = IMPase inhibition was inactive: 34%. For `CCN1CCCC(OC(=O)C2(O)c3ccccc3C=Cc3ccccc32)C1` (configuration not stated), the activity, negative = IMPase inhibition was inactive: 0.815%. For `CN(C)C1CCCC1OC(=O)C(O)(c1ccccc1)c1ccccc1` (configuration not stated), the activity, negative = IMPase inhibition was inactive: 11.9%. In the case of `Cc1ccccc1C(=O)NCC1(N2CCCCC2)CCCCC1`, the activity, negative = IMPase inhibition is reported as inactive: 9.28%. In the case of `CC(C)N1C(=O)CC2(CCN(CCOC(=O)C(O)(c3ccccc3)c3ccccc3)CC2)C1=O`, the activity, negative = IMPase inhibition is reported as inactive: 3.36% [at 38.3 µM]. For `O=C(NCC1(N2CCCCC2)CCCCC1)c1cc([N+](=O)[O-])ccc1Cl`, the activity, negative = IMPase inhibition was inactive: 8.44%.
